According to PubChem BioAssay AID847 (SRMLSC, 2007):
This is a selection; strong and weak results do not stand in their true shares. The source made the active and inactive calls.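 Rule for the calls: active = viability at or below the median of all test compounds minus 3 SD, in both replicates if run twice (cut at about 45% in these data); inconclusive = duplicate replicates that disagree with each other; inactive = viability above that cutoff in every replicate.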

Assay: SK-BR-3 proliferation inhibitors, primary screen, cell-based, human, 24 h (AID 847);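 note: 100% = median untreated cell wells and 0% = median positive control drug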
Conditions: SK-BR-3 viability, CellTiter-Glo ATP luminescence, at 10 µM, stronger effect = lower value

SMILES | viability
O=C(OC1CN2CCC1CC2)C12CC3CC(CC(C3)C1)C2 (stereo unspecified) | inactive: 60.8%
O=C(COc1ccccc1)OC1CN2CCC1CC2 (stereo unspecified) | inactive: 78.8%
Cc1ccc(OCC(=O)OC2CN3CCC2CC3)cc1 (stereo unspecified) | inactive: 102%
O=P1(Nc2ccc(Br)cn2)COc2ccccc2OC1 | inactive: 89.8%
O=P1(Nc2ncccn2)COc2ccccc2OC1 | inactive: 95.1%
O=P1(Nc2ccccn2)COc2ccccc2OC1 | inactive: 110%
Cc1cccc(OCC(=O)OC2CN3CCC2CC3)c1 (stereo unspecified) | inactive: 104%
COC(=O)c1cc2c(s1)N=C(c1ccccc1)N(C)P2(=O)N1CCOCC1 (stereo unspecified) | inactive: 89.9%
O=P1(Nc2nc3ccc(Cl)cc3s2)COc2ccccc2O1 (stereo unspecified) | inactive: 102%
c1nnnn1CCn1cnnn1 | inactive: 89.1%
O=C(OC1CN2CCC1CC2)c1cccc(Cl)c1 (stereo unspecified) | inactive: 99.4%
